{"source": "patent US20100199363A1", "about": "“ENZYMES FOR DEGRADING HERBICIDES” (priority 2006, published 2010)", "molecules": {"B1": {"name": "GOBL: putative glycine oxidase from Brevibacterium linens BL2, ZP_00381186, SEQ ID NO:8 (protein)", "chain": "MDVTAALADASTVPFWLDSDQRPEPLPPLTRDLEADLVIVGGGFTGLWTALQAKERDPGRHVVLVEANSIGWAASGRNGGFCAASLTHGYENGESHLPAENERLAQLGLDNLNEIEAAVTRYGMDVEFERTGELDVATEDYQVPELREAHDPEAGFIFYDQQELAQIVKSPTYKGALWDSREVAMVNPAKLCWELLRVIRELGVEVFEGTKVTDVSDRKTNVQITTLVTSQALEDCASAPCSIITAKRVALATNVFPSLLKRVSLHTVPVYDYALMTEPLSDEQLTSIGWDGRQGIGDCASRFHYYRLSADNRILFGGWDAVYHYGRQVSWKYDQRAETFETLAAHFYETFPQLQGVKFTHKWGGPIDTCSRFFSFFTTAYGKKVAMAAGFTGLGVGASRFAGTVMLDLLSGQDTELTQLEMVRKLPLPFPPEPVAWLGIQMTTNALIKADGNEGRRGPLLKALDAVGMGFDS", "modifications": "Brevibacterium linens BL2"}}, "experiment": "Glyphosate degradation by GloxA-like homologous proteins, soluble cell-free extracts", "type": "biochemical", "source_text": "The GloxA nucleotide and amino acid sequences were compared to the non-redundant nucleotide and protein NCBI databases using BLASTN and BLASTP (Altschul et al., 1997), respectively. Selected putative GloxA-like homologous proteins were then expressed and assayed for glyphosate degradative activity. The nucleotide coding sequences of selected putative homologues were commercially synthesised (Geneart, GmBH), cloned and expressed using the Champion pET200D/TOPO. Expression System (Invitrogen), according to manufacturer's instructions. Recombinant protein expression was verified and quantitated by Coomasie-stained SDS-PAGE analysis and spot-densitometry using AlphaImager 2200 visualization and documentation system (Alpha Innotech).\nEnzymatic assays to assess glyphsate degradation were, performed using soluble cell-free protein extracts (partially purified protein) in a 1 ml volume containing 100 μg total cell-free protein (˜10 μg enzyme extract), 1 mM MgCl2, 1 mM glycine in 20 mM Tris-Cl pH 7.2. Negative controls included cell-free extracts from E. coli BL21 Star both containing no expression vector and containing pET200D/TOPO without an insert."}
{"molecule": "B1", "values": [{"measurement": "Partially Purified Activity [glyphosate degradation]", "result": 480, "unit": "µmol/min/mg"}]}
